{"source": "paper PMC5926424", "about": "(Japanese Journal of Cancer Research : Gann, 2000)", "system": "T.Tn cells", "assay_type": "cell-based", "conditions": "50 μg/ml ATX-S10(Na), 24 h", "data": [{"substance": "HSA: human serum albumin, purchased human plasma protein", "values": [{"measurement": "Effect of plasma protein on cellular uptake of ATX-S10(Na)", "value": "inhibited"}]}]}
